Several values for one entry are separate records, joined by “and”; a condition that tells them apart may be missing. Equal entries are not always repeated.
System: moderate-to-severe acne vulgaris
Conditions: human, in vivo

COc1ccc(-c2ccc3cc(C(=O)O)ccc3c2)cc1C12CC3CC(CC(C3)C1)C2 [0.3% adapalene foam]
Diastolic Blood Pressure, Mean: 72.7 mmHg | Systolic Blood Pressure, Mean: 115.4 mmHg and 115.9 mmHg and 116.3 mmHg | Systolic Blood Pressure, Median: 115.0 mmHg and 116.0 mmHg

From US20250073251A1, “COMPOSITIONS AND METHODS AND USES THEREOF” (Journey Medical Corporation, priority 2019, published 2025)
